Columns and labels:
human URAT1 transporter = human URAT1 transporter (Homo sapiens, UniProt Q96S37); assay: HEK293 hURAT1 stable cell-line uric acid uptake assay; type: cell-based; conditions: HEK293 cells stably expressing URAT1; 14C-uric acid uptake; average of four runs, each in triplicate
human OAT4 transporter [1] = molecular target: T1, human OAT4 transporter (Homo sapiens, UniProt Q9NSA0); conditions: atropisomer 1 versus atropisomer 2
human OAT4 transporter [2] = molecular target: T1, human OAT4 transporter; assay: cell-based; conditions: OAT4 IC50, HEK293 cells stably expressing OAT4; 6-carboxyflorescein uptake; average of six runs, each in triplicate

Chains of the proteins cited; added tags and fusions are not shown. Lines headed by an entry give the natural chain unless they say otherwise; changes in a name come on top.
UniProt Q96S37: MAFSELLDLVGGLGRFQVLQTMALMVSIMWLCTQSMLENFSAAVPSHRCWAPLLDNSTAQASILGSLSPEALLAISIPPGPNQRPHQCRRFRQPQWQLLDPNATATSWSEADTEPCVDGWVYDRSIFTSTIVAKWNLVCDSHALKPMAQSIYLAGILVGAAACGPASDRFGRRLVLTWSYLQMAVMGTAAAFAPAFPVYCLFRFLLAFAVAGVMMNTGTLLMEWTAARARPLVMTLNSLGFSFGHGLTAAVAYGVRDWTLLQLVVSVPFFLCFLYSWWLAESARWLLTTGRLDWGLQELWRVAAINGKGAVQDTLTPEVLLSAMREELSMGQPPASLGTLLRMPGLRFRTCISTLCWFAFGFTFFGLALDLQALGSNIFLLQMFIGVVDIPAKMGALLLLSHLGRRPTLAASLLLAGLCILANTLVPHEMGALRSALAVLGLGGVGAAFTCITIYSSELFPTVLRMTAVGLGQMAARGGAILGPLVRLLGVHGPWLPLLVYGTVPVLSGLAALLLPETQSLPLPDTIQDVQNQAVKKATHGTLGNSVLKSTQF
UniProt Q9NSA0: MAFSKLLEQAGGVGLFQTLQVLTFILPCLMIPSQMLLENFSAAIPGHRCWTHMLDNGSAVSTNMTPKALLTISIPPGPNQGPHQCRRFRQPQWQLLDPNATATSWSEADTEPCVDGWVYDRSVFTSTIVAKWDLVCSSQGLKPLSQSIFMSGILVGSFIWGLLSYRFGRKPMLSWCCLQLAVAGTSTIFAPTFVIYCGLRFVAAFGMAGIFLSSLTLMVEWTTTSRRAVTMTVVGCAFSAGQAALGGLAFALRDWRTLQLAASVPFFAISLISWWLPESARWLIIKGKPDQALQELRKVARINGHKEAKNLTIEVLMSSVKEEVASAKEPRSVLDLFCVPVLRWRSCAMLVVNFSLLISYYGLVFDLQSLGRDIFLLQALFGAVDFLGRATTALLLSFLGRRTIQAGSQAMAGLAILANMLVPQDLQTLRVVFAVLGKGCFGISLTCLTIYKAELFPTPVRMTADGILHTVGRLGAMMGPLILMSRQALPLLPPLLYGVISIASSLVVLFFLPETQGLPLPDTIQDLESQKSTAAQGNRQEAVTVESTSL

## O=C(O)CSc1nnc(Br)n1-c1ccc(C2CC2)c2ccccc12 (single isomer, unassigned) [Atropisomer 1, (−)-2-(5-bromo-4-(4-cyclopropylnaphthalen-1-yl)-4H-1,2,4-triazol-3-ylthio)acetic acid]
Human URAT1 transporter
  IC50: 17.4 µM
Human OAT4 transporter [1]
  Activity against OAT4, comparison of atropisomers: equally active
Human OAT4 transporter [2]
  IC50: 3.68 µM

## O=C(O)CSc1nnc(Br)n1-c1ccc(C2CC2)c2ccccc12 (racemic) [Compound (I), 2-(5-bromo-4-(4-cyclopropylnaphthalen-1-yl)-4H-1,2,4-triazol-3-ylthio)acetic acid]
Human URAT1 transporter
  IC50: 9.5 µM
Human OAT4 transporter [2]
  IC50: 4.25 µM

## O=C(O)CSc1nnc(Br)n1-c1ccc(C2CC2)c2ccccc12 (single isomer, unassigned) [Atropisomer 2, (+)-2-(5-bromo-4-(4-cyclopropylnaphthalen-1-yl)-4H-1,2,4-triazol-3-ylthio)acetic acid]
Human URAT1 transporter
  IC50: 4.3 µM
Human OAT4 transporter [1]
  Activity against OAT4, comparison of atropisomers: equally active
Human OAT4 transporter [2]
  IC50: 4.36 µM

From patent publication US20170319552A1, “ATROPISOMERS OF TRIAZOLE DERIVATIVE” (ARDEA BIOSCIENCES, INC., priority 2016, published 2017)
